# Test results as given in ChEMBL document CHEMBL3804765, “One-pot synthesis and sigma receptor binding studies of novel spirocyclic-2,6-diketopiperazine derivatives” (Bioorg Med Chem Lett, 2016).
# Target: Sigma non-opioid intracellular receptor 1 (Cavia porcellus, UniProt Q60492)
compound,measurement,value
c1ccc(CN2CCC3(CC2)N=Nc2ccccc2N3)cc1,Ki,0.6 nM
